Assay results from article PMC11726670, “Impact of Linker Composition on VHL PROTAC Cell Permeability” (Journal of Medicinal Chemistry, 2024).
Like-named read-outs stand apart in the source and are kept apart here.

The chains behind the UniProt entries cited, without tags or fusion partners.
UniProt P40337, whole entry: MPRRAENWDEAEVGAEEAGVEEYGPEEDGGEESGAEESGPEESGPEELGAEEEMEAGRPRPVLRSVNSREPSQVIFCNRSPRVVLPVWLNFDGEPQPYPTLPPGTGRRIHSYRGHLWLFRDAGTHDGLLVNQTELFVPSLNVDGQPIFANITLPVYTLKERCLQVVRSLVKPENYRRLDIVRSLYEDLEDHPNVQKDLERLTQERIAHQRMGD

Assays:
VHL = VHL (Homo sapiens, UniProt P40337); assay: cell-based VHL binding assay (NanoBRET, live mode)
VHL (VBC complex) = VHL (VBC complex) (Homo sapiens, UniProt P40337); settings: read-out: VHL (in vitro) IC50; biochemical assay; mean ± SEM, three repeats

## Cc1ncsc1-c1ccc(CNC(=O)[C@@H]2C[C@@H](O)CN2C(=O)[C@@H](NC(=O)COCCOCCNC(=O)COc2cnc3c(C4CCN(C(=O)c5ccc(OC(F)(F)F)cc5)CC4)ncnc3c2)C(C)(C)C)cc1 [PROTAC 9]
VHL; live cells overexpressing NanoLuc-VHL, mean ± SEM, six repeats, read-out: VHL (in cellulo) IC50
  IC50: 7.52 ± 0.77 µM
VHL; supplement, N = 6, read-out: VHL (cell), IC50 mean
  IC50: 7.52 µM
VHL (VBC complex)
  IC50: 0.313 ± 0.0033 µM
